Source: US7906482B2, “Anti-obesity agents” (Advanced Diagnostics and Discovery, priority 1999, dated 2011)

Test system: Sprague-Dawley rats
Test: Food intake in rats following IV administration
Type: in vivo, rat
Conditions: tail vein injection
Text: FIG. 1 is a diagram showing a comparison between the anti-obesity activity of PYY3-36 and the anti-obesity activity a compound according to a preferred embodiment of the invention, wherein the anti-obesity activity of these compounds has been determined in an experiment by administering them, at various doses, to Sprague-Dawley rats and by measuring the food consumption of these rats before and after administration of these compounds;
FIG. 2 is another diagram as in FIG. 1, wherein the PYY peptide and the compound according to a preferred embodiment of the invention have been administered to the rats according to other dosages;
FIG. 3 is a diagram showing the reduction in food intake after 24 hours, which has been generated by the administration of the PYY peptide and the compound of the invention, during the experiment described in FIG. 1;
FIG. 4 is a diagram showing the reduction in food intake after 24 hours, which has been generated by the administration of the PYY peptide and the compound of the invention, during the experiment described in FIG. 2; and
Compound I (PYY3-36) and Compound III were injected into the tail vein of fully grown Sprague-Dawley rats. Two experiments were carried out so as to verify the influence of the concentration on Compound III of the food consumption of the animal. The food intake was measured pre and post administration (see FIGS. 1 and 2). […]

Structure (SMILES): CC[C@H](C)[C@H](N)C(=O)N[C@@H](CCCCN)C(=O)N1CCC[C@H]1C(=O)N[C@@H](CCC(=O)O)C(=O)N[C@@H](C)C(=O)N1CCC[C@H]1C(=O)NCC(=O)N[C@@H](CCC(=O)O)C(=O)N[C@@H](CC(=O)O)C(=O)N[C@@H](C)C(=O)N[C@@H](CO)C(=O)N1CCC[C@H]1C(=O)N[C@@H](CCC(=O)O)C(=O)N[C@@H](CCC(=O)O)C(=O)N[C@@H](CC(C)C)C(=O)N[C@@H](CC(N)=O)C(=O)N[C@@H](CCCNC(=N)N)C(=O)N[C@@H](Cc1ccc(O)cc1)C(=O)N[C@@H](Cc1ccc(O)cc1)C(=O)N[C@@H](C)C(=O)N[C@@H](CO)C(=O)N[C@@H](CC(C)C)C(=O)N[C@@H](CCCNC(=N)N)C(=O)N[C@@H](Cc1c[nH]cn1)C(=O)N[C@@H](Cc1ccc(O)cc1)C(=O)N[C@@H](CC(C)C)C(=O)N[C@@H](CC(N)=O)C(=O)N[C@@H](CC(C)C)C(=O)N[C@H](C(=O)N[C@H](C(=O)N[C@@H](CCCNC(=N)N)C(=O)N[C@@H](CCC(N)=O)C(=O)N[C@@H](CCCNC(=N)N)C(=O)N[C@@H](Cc1ccc(O)cc1)C(N)=O)[C@@H](C)O)C(C)C [Compound I]
- reduction in food intake after 24 hrs (dose of 25 nmol/kg): does not show reduction in food
- reduction in food intake after 24 hrs (dose of 375 nmol/kg): does not show reduction in food
